HCMV UL50-53 inh: cytomegalovirus nuclear egress complex inhibition; HTRF UL50-UL53 interaction, normalized percent inhibition; inhibition, % (no concentration beside the values); 0.15% of 190,000 active; AID 1918969; in the data active means inhibition above about 27%, passing the limit was not always enough
GIV-Gai inh: inhibitors of GIV peptide binding to Galpha-i3, primary screen, biochemical, fluorescence polarization, FITC-GIV GBA peptide, rat Galphai3 | 90 min; stronger effect = lower value; scaled: aluminum fluoride 0%, vehicle 100% | AID 1224905, 2016 | 210,000 compounds, 0.42% hits | percent of control (FP), % (concentration not given with the values) | Guanine nucleotide-binding protein G(i) subunit alpha-3 (Rattus norvegicus), P08753;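 active = replicate mean at 85% of control or lower, very high polarization wells dropped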;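 note: wells of about 15 µL received 100 nL stock; the first replicate is given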
GIV Gai FP conf: GIV-Galpha-i3 inhibition, FP confirmation; fluorescence polarization, mP at 100 µM; AID 1259350; FITC-GIV peptide binding to Galphai3, fluorescence polarization; active compounds read low; 38% of 580 active; shares compounds with GIV-Gai inh;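 active means inhibition score of 15 or more, meaning 100 minus mean polarization as percent of control over three replicates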;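 further: lower mP means peptide displaced from Galphai3 so more inhibition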
GIV-Gai AS conf: confirmation of inhibitors of GIV binding to human Galpha-i3; shares compounds with GIV-Gai inh; AlphaScreen Galphai3-GIV binding, purified proteins, 90 min; active compounds read low; AlphaScreen counts at 100 µM; 39% of 580 active;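 active means inhibition score at or above a set limit, where the score is 100 minus the three-replicate mean percent of control signal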
Starred values were filed as active, the others as inactive. Sampled rows, rich in hits. Any-hit rate of the full collection: about 0.43%.

Sequences of proteins named here, by UniProt entry; tags and fusion partners are left off.
Guanine nucleotide-binding protein G(i) subunit alpha-3 (Rattus norvegicus), P08753, UniProt P08753, whole entry, looked up: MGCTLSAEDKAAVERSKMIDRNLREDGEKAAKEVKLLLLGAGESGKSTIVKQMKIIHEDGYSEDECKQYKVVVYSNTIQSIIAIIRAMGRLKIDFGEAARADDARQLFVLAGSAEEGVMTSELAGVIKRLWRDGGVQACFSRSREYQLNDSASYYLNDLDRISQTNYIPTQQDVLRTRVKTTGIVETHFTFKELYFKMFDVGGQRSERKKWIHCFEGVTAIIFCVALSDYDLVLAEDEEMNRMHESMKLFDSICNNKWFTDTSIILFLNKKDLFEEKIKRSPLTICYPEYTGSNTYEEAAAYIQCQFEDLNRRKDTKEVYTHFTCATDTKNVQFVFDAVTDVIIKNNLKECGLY

N#CC1=C(SCc2ccccc2)SC(c2ccc(C(=O)O)cc2)NC1=O (configuration not stated) was read as GIV-Gai inh 74*, GIV Gai FP conf 65 and GIV-Gai AS conf 28170*.
Screening N#CC1=C(SCc2ccccc2)SC(CO)NC1=O (configuration not stated) returned HCMV UL50-53 inh -15 and GIV-Gai inh 106.
`COc1ccc(-c2n[nH]c(CCNC(=O)Cc3cccc(OC)c3)n2)cc1` gave HCMV UL50-53 inh -10 and GIV-Gai inh 100.
COc1ccc(C(=O)NC(c2ccc(C)cc2)c2cc(Cl)c3cccnc3c2O)cc1 (configuration not stated) was read as GIV-Gai inh 80*, GIV Gai FP conf 61* and GIV-Gai AS conf 89449.
`COc1ccc(C(=O)NC(c2ccccc2Cl)c2cc(Cl)c3cccnc3c2O)cc1` (configuration not stated) gave GIV-Gai inh 92.
Screening Cc1ccc(-c2nc(N)n(C(=O)C3CC3)n2)cc1 returned HCMV UL50-53 inh -26 and GIV-Gai inh 105.
Screening Cc1ccc(C2c3c(oc4ccc(C)cc4c3=O)C(=O)N2c2ccccn2)cc1 (configuration not stated) returned HCMV UL50-53 inh -4 and GIV-Gai inh 99.
`O=c1[nH]c(SCCO)nc2sc3c(c12)CCCC3` gave HCMV UL50-53 inh 0.
`O=C(O)CC(Sc1nc2sc3c(c2c(=O)[nH]1)CCCC3)C(=O)O` (configuration not stated) gave GIV-Gai inh 75*, GIV Gai FP conf 52* and GIV-Gai AS conf 16638*.
Screening CC1CCCC(C)N1C(=O)COc1ccc(C(=O)O)cc1 (configuration not stated) returned HCMV UL50-53 inh -2.
For Fc1ccc(-c2csc(NCC3CCCO3)n2)cc1 (configuration not stated) the results were HCMV UL50-53 inh -5 and GIV-Gai inh 103.
Screening CCC(=O)Nc1ccc(-c2cc(C(=O)NCc3ccccc3)c3ccccc3n2)cc1 returned GIV-Gai inh 110.
For CCOc1ccc(NC(=O)c2cc(S(=O)(=O)Nc3ccc(OCC)cc3)[nH]n2)cc1 the results were HCMV UL50-53 inh -3 and GIV-Gai inh 102.
COc1ccc(-c2nc(N3CCC(C)CC3)nc3nn4c(C)cc(C)nc4c23)cc1 was read as HCMV UL50-53 inh -18, GIV-Gai inh 88, GIV Gai FP conf 66 and GIV-Gai AS conf 41938.
Cc1cc(C)n2nc3nc(N4CCCC4)nc(-c4ccccc4)c3c2n1 was read as HCMV UL50-53 inh 0 and GIV-Gai inh 105.

Three structures out of the list, sorted by formula weight, smallest number first.
`O=C(O)CC(Sc1nc2sc3c(c2c(=O)[nH]1)CCCC3)C(=O)O` (configuration not stated) gave GIV-Gai inh 75*, GIV Gai FP conf 52* and GIV-Gai AS conf 16638*.
Screening CCC(=O)Nc1ccc(-c2cc(C(=O)NCc3ccccc3)c3ccccc3n2)cc1 returned GIV-Gai inh 110.
For CCOc1ccc(NC(=O)c2cc(S(=O)(=O)Nc3ccc(OCC)cc3)[nH]n2)cc1 the results were HCMV UL50-53 inh -3 and GIV-Gai inh 102.

Back to the main list with the 2 entries that preceded the break.
COc1ccc(-c2nc(N3CCC(C)CC3)nc3nn4c(C)cc(C)nc4c23)cc1 was read as HCMV UL50-53 inh -18, GIV-Gai inh 88, GIV Gai FP conf 66 and GIV-Gai AS conf 41938.
Cc1cc(C)n2nc3nc(N4CCCC4)nc(-c4ccccc4)c3c2n1 was read as HCMV UL50-53 inh 0 and GIV-Gai inh 105.
Screening Cc1ccc(-n2c(=O)cc(N3CCc4ccccc43)[nH]c2=O)cc1 returned GIV-Gai inh 99.
Screening O=C(C1CCN(c2ccc(Sc3ccc(Br)cc3)nn2)CC1)N1CCOCC1 returned HCMV UL50-53 inh -46 and GIV-Gai inh 105.
Screening COc1ccc(/C=C2\C=C(c3ccccc3)N(c3cccnc3)C2=O)cc1Br returned GIV-Gai inh 44*, GIV Gai FP conf 66 and GIV-Gai AS conf 45797.
Screening COc1ccc(/C=C2\C=C(c3ccccc3)N(c3ccc(Br)cc3)C2=O)cc1Br returned GIV-Gai inh 110.
Screening COc1ccc(/C=C2\C=C(c3ccccc3)N(c3ccc(Br)cc3)C2=O)cc1 returned GIV-Gai inh 102.
Screening COC(=O)c1cc(N2C(=O)/C(=C/c3ccc(OC)c(Br)c3)C=C2c2ccccc2)ccc1Cl returned GIV-Gai inh 7.0*, GIV Gai FP conf 62 and GIV-Gai AS conf 49090.
`COc1ccc(/C=C2\C=C(c3ccccc3)N(c3cccc(C(C)=O)c3)C2=O)cc1Br` gave GIV-Gai inh 78*, GIV Gai FP conf 73 and GIV-Gai AS conf 38656.
Screening COc1ccc(/C=C2\C=C(c3ccccc3)N(c3ccc(O)cc3)C2=O)cc1Br returned GIV-Gai inh 111.
`COc1ccc(/C=C2\C=C(c3ccccc3)N(c3ccc(Cl)c(Cl)c3)C2=O)cc1Br` gave GIV-Gai inh 119.
For COc1ccc(N2C(=O)/C(=C/c3ccc(Cl)cc3)C=C2c2ccccc2)cc1 the results were GIV-Gai inh 82*, GIV Gai FP conf 77 and GIV-Gai AS conf 32406.
Screening Cc1ccc(Cn2c(C)c3cnn(CC(=O)NCC4CCCO4)c(=O)c3c2C)cc1 (configuration not stated) returned HCMV UL50-53 inh 2 and GIV-Gai inh 106.
Screening COc1cccc(CNC(=O)c2ccc(Cl)c(-n3c(C)nc4cccnc43)c2)c1 returned HCMV UL50-53 inh -7 and GIV-Gai inh 108.
`CCOC(=O)c1sc2nc(SCC(=O)Nc3ccc(OCC)cc3)n(N)c(=O)c2c1C` gave GIV-Gai inh 109.
`COc1cc(/C=C2\SC(=O)N(C)C2=O)ccc1Oc1ccc([N+](=O)[O-])cc1[N+](=O)[O-]` gave HCMV UL50-53 inh -20 and GIV-Gai inh 96.
COc1ccc(C=C2C(=O)NC(=O)NC2=O)cc1Oc1ccc([N+](=O)[O-])cc1[N+](=O)[O-] was read as HCMV UL50-53 inh 51*, GIV-Gai inh 87, GIV Gai FP conf 60 and GIV-Gai AS conf 15324*.
Cc1nc(-c2cc(C#N)c(NCc3ccccc3)nc2C)cs1 was read as HCMV UL50-53 inh -7 and GIV-Gai inh 101.
O=C1NC2(O)C(=O)c3ccccc3C2(O)N1 (configuration not stated) was read as GIV-Gai inh 113.
Screening NC1=NC2(O)c3ccccc3C(=O)C2(O)NN1 (configuration not stated) returned GIV-Gai inh 76*, GIV Gai FP conf 54* and GIV-Gai AS conf 44135.
Screening CC1(C)CC(=O)C=C(NCC2CCNCC2)C1 returned HCMV UL50-53 inh 4 and GIV-Gai inh 107.
For CCCCCCCCCCCCCCCC(=O)OC the results were HCMV UL50-53 inh -30.
